{"source": "patent US12102629B1", "about": "“Intranasal composition of pharmaceutical countermeasures for chemical warfare nerve agents and accidental exposure to organophosphate pesticides” (dated 2024)", "origin": "cited, not measured here", "key": {"[1]": {"details": "used as mucosal permeation enhancer, 1% solution, intranasal"}, "[2]": {"details": "injectable drug, after 4 weeks of heat exposure"}, "[3]": {"details": "intranasal epinephrine solution with 1% taurodeoxycholic acid"}}, "data": [{"smiles": "C[C@H](CCC(=O)NCCS(=O)(=O)O)[C@H]1CC[C@H]2[C@@H]3CC[C@@H]4C[C@H](O)CC[C@]4(C)[C@H]3C[C@H](O)[C@]12C", "values": [{"measurement": "nasal mucosal tissue damage", "setting": "[1]", "value": "severe nasal mucosal tissue damage"}]}, {"smiles": "CN1[C@@H]2CC[C@H]1C[C@@H](OC(=O)C(CO)c1ccccc1)C2", "note": "(stereo partly drawn)", "values": [{"measurement": "degradation after heat exposure", "setting": "[2]", "value": "undetectable"}]}, {"smiles": "CNC[C@H](O)c1ccc(O)c(O)c1", "values": [{"measurement": "absolute bioavailability", "setting": "[3]", "value": "quite low"}]}]}
